Results as given in EPA's aquatic toxicity sets.

What was measured:
Tetrahymena pyriformis = experiment: 48 h IGC50 (-log10 mol/L); higher = more toxic
Pimephales promelas = experiment: 96 h LC50 (-log10 mol/L); higher = more toxic
Daphnia magna = experiment: 48 h LC50 (-log10 mol/L); higher = more toxic

## c1ccc(-c2ccccn2)cc1
Tetrahymena pyriformis
  48 h IGC50 (-log10 mol/L): 3.27

## c1ccc2cccc-2cc1
Pimephales promelas
  96 h LC50 (-log10 mol/L): 4.15

## CCCCOCCCC
Daphnia magna
  48 h LC50 (-log10 mol/L): 3.7
